Laboratory results as given in patent US10196693B2, “Method for predicting response to breast cancer therapeutic agents and method of treatment of breast cancer” (MEDIVATION PROSTATE THERAPEUTICS, LLC, priority 2014, dated 2019).

Tested on: androgen receptor-positive (AR+) triple-negative breast cancer
Experiment: Clinical trial of enzalutamide in patients with AR+ triple-negative breast cancer
Assay type: in vivo, human

## CNC(=O)c1ccc(N2C(=S)N(c3ccc(C#N)c(C(F)(F)F)c3)C(=O)C2(C)C)cc1F [enzalutamide, 4-(3-(4-cyano-3-(trifluoromethyl)phenyl)-5,5-dimethyl-4-oxo-2-thioxoimidazolidin-1-yl)-2-fluoro-N-methylbenzamide]
160 mg/day oral, PR-AR DX+ (score > −0.25), at 84 weeks
  median overall survival (mOS): not yet reached
160 mg/day oral, PR-AR DX− (score <= −0.25)
  median overall survival (mOS): 32.1 weeks
160 mg/day oral, patients meeting signature, Weighted Basal and Luminal A classifier score > −0.25 (PR-AR DX+)
  median progression-free survival (mPFS): 16.1 weeks
160 mg/day oral, patients not meeting signature, score <= −0.25 (PR-AR DX−)
  median progression-free survival (mPFS): 8.1 weeks
Basal Centroid classifier score <0.6, 1st line and 2nd line patients
  Clinical Benefit Rate at ≥24 weeks (CBR24): 60%
Patients with Basal Centroid classifier score <0.6 (Novel DX+)
  Clinical Benefit Rate at ≥24 weeks (CBR24): 42%
Patients with zero to one prior therapies, PR-AR DX+ (score > −0.25), to 64 weeks
  median progression-free survival (mPFS): 40.4 weeks
Patients with zero to one prior therapies, PR-AR DX− (score <= −0.25), to 64 weeks
  median progression-free survival (mPFS): 8.9 weeks
